# Measurements reported in patent US10442819B2, “Tricyclic compounds as inhibitors of mutant IDH enzymes” (Merck Sharp & Dohme Corp., priority 2014, dated 2019).
# Chains of the proteins cited; added tags and fusions are not shown.
# UniProt O75874, whole entry R132H: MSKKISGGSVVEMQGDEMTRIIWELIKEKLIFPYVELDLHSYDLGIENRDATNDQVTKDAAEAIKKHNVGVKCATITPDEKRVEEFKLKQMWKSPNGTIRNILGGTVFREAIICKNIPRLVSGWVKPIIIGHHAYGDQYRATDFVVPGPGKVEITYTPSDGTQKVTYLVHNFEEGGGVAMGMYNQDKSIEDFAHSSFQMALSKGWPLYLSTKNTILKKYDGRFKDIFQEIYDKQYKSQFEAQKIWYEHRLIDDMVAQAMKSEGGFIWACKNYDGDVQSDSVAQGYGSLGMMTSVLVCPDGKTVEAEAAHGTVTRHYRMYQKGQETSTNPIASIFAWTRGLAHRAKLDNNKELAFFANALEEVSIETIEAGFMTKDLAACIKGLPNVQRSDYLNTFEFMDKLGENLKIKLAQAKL
# Target: R132H mutant IDH1 enzyme (Homo sapiens (Human), UniProt O75874, R132H)
# Assay: R132H IDH1 Enzymatic Assay
# Format: biochemical
# Conditions: R132H mutant IDH1 enzyme 1.5 nM final; luminescence readout; read-out: IC50
row,Compound,IC50
1,"C[C@H]1CC(F)(F)CC[C@@H]1C(=O)N1Cc2cccnc2Nc2ccc(N3CCC(F)(F)C3)cc21 [Example 197, 6-{[(1S,2S)-4,4-difluoro-2-methylcyclohexyl]carbonyl}-8-(3,3-difluoropyrrolidin-1-yl)-6,11-dihydro-5H-pyrido[2,3-b][1,5]benzodiazepine]",220 nM
2,"COC1CCC(C(=O)N2Cc3cccnc3Nc3ccc(N4CCC(OC)CC4)cc32)CC1 (stereo not shown) [Example 198, 6-[(4-methoxycyclohexyl)carbonyl]-8-(4-methoxypiperidin-1-yl)-6,11-dihydro-5H-pyrido[2,3-b][1,5]benzodiazepine]",761 nM
3,"COC1CCC(C(=O)N2Cc3cccnc3Nc3ccc(N4CCC(OC)CC4)cc32)CC1 (stereo not shown) [Example 199, 6-[(4-methoxycyclohexyl)carbonyl]-8-(4-methoxypiperidin-1-yl)-6,11-dihydro-5H-pyrido[2,3-b][1,5]benzodiazepine]",627 nM
4,"COC1CCC(C(=O)N2Cc3cccnc3Nc3ccc(N4CCC(C)(OC)CC4)cc32)CC1 (stereo not shown) [Example 200, 6-[(4-methoxycyclohexyl)carbonyl]-8-(4-methoxy-4-methylpiperidin-1-yl)-6,11-dihydro-5H-pyrido[2,3-b][1,5]benzodiazepine]",663 nM
5,"COC1CCC(C(=O)N2Cc3cccnc3Nc3ccc(N4CCC(C)(OC)CC4)cc32)CC1 (stereo not shown) [Example 201, 6-[(4-methoxycyclohexyl)carbonyl]-8-(4-methoxy-4-methylpiperidin-1-yl)-6,11-dihydro-5H-pyrido[2,3-b][1,5]benzodiazepine]",283 nM
6,"COC1CCC(C(=O)N2Cc3cccnc3Nc3ccc(N4CCCC(OC)C4)cc32)CC1 (stereo not shown) [Example 202, 6-[(4-methoxycyclohexyl)carbonyl]-8-(3-methoxypiperidin-1-yl)-6,11-dihydro-5H-pyrido[2,3-b][1,5]benzodiazepine]",564 nM
7,"COC1CCC(C(=O)N2Cc3cccnc3Nc3ccc(N4CCCC(OC)C4)cc32)CC1 (stereo not shown) [Example 203, 6-[(4-methoxycyclohexyl)carbonyl]-8-(3-methoxypiperidin-1-yl)-6,11-dihydro-5H-pyrido[2,3-b][1,5]benzodiazepine]",560 nM
8,"COC1CCC(C(=O)N2Cc3cccnc3Nc3ccc(N4CC[C@H](OC)C4)cc32)CC1 (stereo partly drawn) [Example 204, 6-[(4-methoxycyclohexyl)carbonyl]-8-[(3S)-3-methoxypyrrolidin-1-yl]-6,11-dihydro-5H-pyrido[2,3-b][1,5]benzodiazepine]",732 nM
9,"CO[C@@H]1CCN(c2ccc3c(c2)N(C(=O)[C@H]2CC[C@H](OC(C)C)CC2)Cc2cccnc2N3)C1 [Example 207, 8-[(3R)-3-methoxypyrrolidin-1-yl]-6-{[trans-4-(1-methylethoxy)cyclohexyl]car-bonyl}-6,11-dihydro-5H-pyrido[2,3-b][1,5]benzodiazepine]",70 nM
10,"COC1(C)CCN(c2ccc3c(c2)N(C(=O)[C@H]2CC[C@H](OC(C)C)CC2)Cc2cccnc2N3)CC1 [Example 208, 8-(4-methoxy-4-methylpiperidin-1-yl)-6-{[trans-4-(1-methylethoxy)cyclohexyl]car-bonyl}-6,11-dihydro-5H-pyrido[2,3-b][1,5]benzodiazepine]",103 nM
11,"COC1CCC(C(=O)N2Cc3cccnc3Nc3ccc(N4CCC(OC)C(F)C4)cc32)CC1 (stereo not shown) [Example 209, 8-(3-fluoro-4-methoxypiperidin-1-yl)-6-[(4-methoxycyclohexyl)carbonyl]-6,11-dihydro-5H-pyrido[2,3-b][1,5]benzodiazepine]",651 nM
12,"COC1CCN(c2ccc3c(c2)N(C(=O)[C@H]2CC[C@H](OC)CC2)Cc2cccnc2N3)CC1(F)F (stereo partly drawn) [Example 210, 8-(3,3-difluoro-4-methoxypiperidin-1-yl)-6-[(trans-4-methoxycyclohexyl)carbonyl]-6,11-dihydro-5H-pyrido[2,3-b][1,5]benzodiazepine]",250 nM
13,"COC1CCN(c2ccc3c(c2)N(C(=O)[C@H]2CC[C@H](OC)CC2)Cc2cccnc2N3)CC1(F)F (stereo partly drawn) [Example 211, 8-(3,3-difluoro-4-methoxypiperidin-1-yl)-6-[(trans-4-methoxycyclohexyl)carbonyl]-6,11-dihydro-5H-pyrido[2,3-b][1,5]benzodiazepine]",152 nM
14,"COC1CN(c2ccc3c(c2)N(C(=O)[C@H]2CC[C@H](OC)CC2)Cc2cccnc2N3)CCC1(F)F (stereo partly drawn) [Example 212, 8-(4,4-difluoro-3-methoxypiperidin-1-yl)-6-[(trans-4-methoxycyclohexyl)carbonyl]-6,11-dihydro-5H-pyrido[2,3-b][1,5]benzodiazepine]",286 nM
15,"COC1CN(c2ccc3c(c2)N(C(=O)[C@H]2CC[C@H](OC)CC2)Cc2cccnc2N3)CCC1(F)F (stereo partly drawn) [Example 213, 8-(4,4-difluoro-3-methoxypiperidin-1-yl)-6-[(trans-4-methoxycyclohexyl)carbonyl]-6,11-dihydro-5H-pyrido[2,3-b][1,5]benzodiazepine]",321 nM
16,"COC1CN(c2ccc3c(c2)N(C(=O)[C@H]2CC[C@H](OC)CC2)Cc2cccnc2N3)CC1F (stereo partly drawn) [Example 218, 8-(3-fluoro-4-methoxypyrrolidin-1-yl)-6-[(trans-4-methoxycyclohexyl)carbonyl]-6,11-dihydro-5H-pyrido[2,3-b][1,5]benzodiazepine]",198 nM

row,Compound,IC50
1,"COC1CN(c2ccc3c(c2)N(C(=O)[C@H]2CC[C@H](OC)CC2)Cc2cccnc2N3)CC1F (stereo partly drawn) [Example 219, 8-(3-fluoro-4-methoxypyrrolidin-1-yl)-6-[(trans-4-methoxycyclohexyl)carbonyl]-6,11-dihydro-5H-pyrido[2,3-b][1,5]benzodiazepine]",200 nM
2,"CC(C)O[C@H]1CC[C@H](C(=O)N2Cc3cccnc3Nc3ccc(N4CC5(COC5)C4)cc32)CC1 [Example 220, 6-{[trans-4-(1-methylethoxy)cyclohexyl]car-bonyl}-8-(2-oxa-6-azaspiro[3.3]hept-6-yl)-6,11-dihydro-5H-pyrido[2,3-b][1,5]benzodiazepine]",165 nM
3,"CO[C@H]1CC[C@H](C(=O)N2Cc3cccnc3Nc3ccc(N4CCC(F)CC4)cc32)CC1 [Example 221, 8-(4-fluoropiperidin-1-yl)-6-[(trans-4-methoxycyclohexyl)carbonyl]-6,11-dihydro-5H-pyrido[2,3-b][1,5]benzodiazepine]",440 nM
4,"CO[C@H]1CC[C@H](C(=O)N2Cc3cccnc3Nc3ccc(N4C[C@H](C)OC[C@H]4C)cc32)CC1 [Example 222, 8-[(2S,5R)-2,5-dimethylmorpholin-4-yl]-6-[(trans-4-methoxycyclohexyl)carbonyl]-6,11-dihydro-5H-pyrido[2,3-b][1,5]benzodiazepine]",491 nM
5,"COCC1COCCN1c1ccc2c(c1)N(C(=O)[C@H]1CC[C@H](OC)CC1)Cc1cccnc1N2 (stereo partly drawn) [Example 223, 6-[(trans-4-methoxycyclohexyl)carbonyl]-8-[3-(methoxymethyl)morpholin-4-yl]-6,11-dihydro-5H-pyrido[2,3-b][1,5]benzodiazepine]",810 nM
6,"CO[C@H]1CC[C@H](C(=O)N2Cc3cccnc3Nc3ccc(N4C[C@@H](C)OC[C@H]4C)cc32)CC1 [Example 224, 8-[(2R,5R)-2,5-dimethylmorpholin-4-yl]-6-[(trans-4-methoxycyclohexyl)carbonyl]-6,11-dihydro-5H-pyrido[2,3-b][1,5]benzodiazepine]",846 nM
7,"CO[C@H]1CC[C@H](C(=O)N2Cc3cccnc3Nc3ccc(N4C[C@H](C)OC[C@@H]4C)cc32)CC1 [Example 225, 8-[(2S,5S)-2,5-dimethylmorpholin-4-yl]-6-[(trans-4-methoxycyclohexyl)carbonyl]-6,11-dihydro-5H-pyrido[2,3-b][1,5]benzodiazepine]",474 nM
8,"CO[C@H]1CC[C@H](C(=O)N2Cc3cccnc3Nc3ccc(N4CCCCC4)cc32)CC1 [Example 226, 6-[(trans-4-methoxycyclohexyl)carbonyl]-8-piperidin-1-yl-6,11-dihydro-5H-pyrido[2,3-b][1,5]benzodiazepine]",475 nM
9,"CO[C@H]1CC[C@H](C(=O)N2Cc3cccnc3Nc3ccc(N4CCCC4)cc32)CC1 [Example 227, 6-[(trans-4-methoxycyclohexyl)carbonyl]-8-pyrrolidin-1-yl-6,11-dihydro-5H-pyrido[2,3-b][1,5]benzodiazepine]",613 nM
10,"COCC1CCCN(c2ccc3c(c2)N(C(=O)[C@H]2CC[C@H](OC)CC2)Cc2cccnc2N3)C1 (stereo partly drawn) [Example 228, 6-[(trans-4-methoxycyclohexyl)carbonyl]-8-[3-(methoxymethyl)piperidin-1-yl]-6,11-dihydro-5H-pyrido[2,3-b][1,5]benzodiazepine]",618 nM
11,"CO[C@H]1CC[C@H](C(=O)N2Cc3cccnc3Nc3ccc(N4CCOCCC4C)cc32)CC1 (stereo partly drawn) [Example 229, 6-[(trans-4-methoxycyclohexyl)carbonyl]-8-(5-methyl-1,4-oxazepan-4-yl)-6,11-dihydro-5H-pyrido[2,3-b][1,5]benzodiazepine]",303 nM
12,"CO[C@H]1CC[C@H](C(=O)N2Cc3cccnc3Nc3ccc(N4CC[C@@H](CF)C4)cc32)CC1 [Example 230, 8-[(3R)-3-(fluoromethyl)pyrrolidin-1-yl]-6-[(trans-4-methoxycyclohexyl)carbonyl]-6,11-dihydro-5H-pyrido[2,3-b][1,5]benzodiazepine]",312 nM
13,"CO[C@H]1CC[C@H](C(=O)N2Cc3cccnc3Nc3ccc(N4CCOC5CCCC54)cc32)CC1 (stereo partly drawn) [Example 231, 8-(hexahydrocyclopenta[b][1,4]oxazin-4(4aH)-yl)-6-[(trans-4-methoxycyclohexyl)carbonyl]-6,11-dihydro-5H-pyrido[2,3-b][1,5]benzodiazepine]",223 nM
14,"CCC1CN(c2ccc3c(c2)N(C(=O)[C@H]2CC[C@H](OC)CC2)Cc2cccnc2N3)CCO1 (stereo partly drawn) [Example 232, 8-(2-ethylmorpholin-4-yl)-6-[(trans-4-methoxycyclohexyl)carbonyl]-6,11-dihydro-5H-pyrido[2,3-b][1,5]benzodiazepine]",686 nM
15,"CO[C@H]1CC[C@H](C(=O)N2Cc3cccnc3Nc3ccc(N4CCOCC(C)C4)cc32)CC1 (stereo partly drawn) [Example 233, 6-[(trans-4-methoxycyclohexyl)carbonyl]-8-(6-methyl-1,4-oxazepan-4-yl)-6,11-dihydro-5H-pyrido[2,3-b][1,5]benzodiazepine]",310 nM
